From patent US20040029178A1, “Novel g protein-coupled receptor proteins and dnas thereof” (priority 2000, published 2004)

Columns and labels:
[1] = target: T1, TGR26 (Rattus norvegicus, UniProt Q56UD9); test: GTPγS binding activity using a membrane fraction of TGR26 expressing CHO cells; assay type: biochemical; conditions: various concentrations
T1 construct: expressed in transfected cells; whole cells in A1, membrane fraction in A2 and A3
T1 sequence (Q56UD9 1-329): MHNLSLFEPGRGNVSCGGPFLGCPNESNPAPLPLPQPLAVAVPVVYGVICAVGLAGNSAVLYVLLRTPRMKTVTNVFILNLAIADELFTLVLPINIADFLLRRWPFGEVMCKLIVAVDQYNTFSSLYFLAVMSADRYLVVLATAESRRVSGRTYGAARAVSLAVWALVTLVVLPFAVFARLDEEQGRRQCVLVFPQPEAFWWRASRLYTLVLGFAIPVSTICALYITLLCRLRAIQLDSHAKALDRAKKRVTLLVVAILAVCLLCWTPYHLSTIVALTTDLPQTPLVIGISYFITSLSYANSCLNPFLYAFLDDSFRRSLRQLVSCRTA
Protocol: Promoting activity for [^35S]-guanosine 5′-(γ-thio) triphosphate (GTPγS) binding to a membrane fraction of TGR26 expressing cells was assayed in accordance with the following method.
To 1×10^8 of TGR26 expressing CHO cells, 10 ml of homogenating buffer (10 mM NaHCO3, 5 mM EDTA, 0.5 mM PMSF (phenylmethylsulfonyl fluoride), 1 μg/ml Pepstatin, 4 μg/ml E-64, 20 μg/ml Leupeptin) was added, and the cells were disrupted using Polytron (12,000 rpm, 1 minute). Supernatant was obtained from the disrupted cell suspension by centrifugation (1,000 g, 15 minutes). In addition, the supernatant was ultracentrifuged (Beckman Type 30 rotor, 30,000 rpm, 1 hour), and precipitate obtained was kept as a membrane fraction of TGR26 expressing CHO cells.
The membrane fraction of TGR26 expressing CHO cells was diluted with membrane dilution buffer (50 mM Tris HCl buffer (pH 7.4), 5 mM MgCl2, 150 mM NaCl, 1 μM GDP, 0.1% BSA) to prepare a cell membrane fraction solution for assay at 30 μg/ml of protein concentration. To 200 μl of membrane fraction solution for assay, 2 μl of 50 nM [^35S]-guanosine 5′-(γ-thio) triphosphate (NEN) and 2 μl of sample/DMSO solution having an appropriate concentration were added. Then the mixture was incubated at 25° C. for one hour. […] Finally, a radioactivity on the filter was determined by liquid scintillation counter. […]

[2] = target: T1, TGR26; test: Inhibition of intracellular cAMP production using TGR26 expressing CHO cells; assay type: cell-based; conditions: 2 μM forskolin, various concentrations
Protocol: TGR26 expressing CHO cells prepared in Example 3 were seeded on 24-well plate at 5×10^4 cells/well and cultivated for 48 hours. The cells were washed with MEMα buffer (pH 7.4) containing 0.2 mM 3-isobutyl-methylxanthine, 0.05% BSA (bovine serum albumine) and 20 mM HEPES [hereafter, MEMα buffer (pH 7.4) containing 0.2 mM 3-isobutyl-methylxanthine, 0.05% BSA (bovine serum albumine) and 20 mM HEPES may be referred to as reaction buffer]. Then, 0.5 ml of the reaction buffer was added to the cells and the suspension was incubated for 30 minutes in the incubator. […] The cAMP level in the extract was measured using the cAMP EIA Kit (Amersham Pharmacia Biotech).
The human homologue of GPR8 ligand peptide consisting of 23 residues represented by […], which was obtained in Reference Example 12 (hereafter, sometimes referred to as hGPR8L (1-23)), or the human homologue of GPR8 ligand peptide consisting of 30 residues represented by […], which was obtained in Reference Example 13 (hereafter, sometimes referred to as hGPR8L (1-30)) was administered at various concentrations to […] TGR26 expressing CHO cells by the method described in Example 4, and an inhibiting activity of intracellular cAMP production was measured. […]

Compound	promoting activity of GTPγS binding [1]	inhibiting activity of intracellular cAMP production [2]
CSCC[C@H](NC(=O)[C@H](CC(C)C)NC(=O)[C@H](CC(C)C)NC(=O)CNC(=O)[C@H](C)NC(=O)[C@H](C)NC(=O)[C@H](CCCNC(=N)N)NC(=O)CNC(=O)[C@@H](NC(=O)[C@@H](NC(=O)[C@H](Cc1c[nH]cn1)NC(=O)[C@H](Cc1ccc(O)cc1)NC(=O)[C@H](CCCNC(=N)N)NC(=O)[C@@H]1CCCN1C(=O)[C@H](CO)NC(=O)[C@H](C)NC(=O)[C@@H](NC(=O)[C@H](Cc1c[nH]cn1)NC(=O)[C@H](CCCCN)NC(=O)[C@H](Cc1ccc(O)cc1)NC(=O)[C@@H](N)Cc1c[nH]c2ccccc12)C(C)C)[C@@H](C)O)C(C)C)C(=O)NCC(=O)N[C@@H](CC(C)C)C(=O)O [hGPR8L (1-23)]	promoted GTPγS binding of TGR26 expressing CHO cells depending on the concentration	inhibited intracellular cAMP production of TGR26 expressing CHO cells depending on the concentration
CSCC[C@H](NC(=O)[C@H](CC(C)C)NC(=O)[C@H](CC(C)C)NC(=O)CNC(=O)[C@H](C)NC(=O)[C@H](C)NC(=O)[C@H](CCCNC(=N)N)NC(=O)CNC(=O)[C@@H](NC(=O)[C@@H](NC(=O)[C@H](Cc1c[nH]cn1)NC(=O)[C@H](Cc1ccc(O)cc1)NC(=O)[C@H](CCCNC(=N)N)NC(=O)[C@@H]1CCCN1C(=O)[C@H](CO)NC(=O)[C@H](C)NC(=O)[C@@H](NC(=O)[C@H](Cc1c[nH]cn1)NC(=O)[C@H](CCCCN)NC(=O)[C@H](Cc1ccc(O)cc1)NC(=O)[C@@H](N)Cc1c[nH]c2ccccc12)C(C)C)[C@@H](C)O)C(C)C)C(=O)NCC(=O)N[C@@H](CC(C)C)C(=O)N[C@@H](CCCNC(=N)N)C(=O)N[C@@H](CCCNC(=N)N)C(=O)N[C@@H](CO)C(=O)N1CCC[C@H]1C(=O)N[C@@H](Cc1ccc(O)cc1)C(=O)N[C@@H](CC(C)C)C(=O)N[C@@H](Cc1c[nH]c2ccccc12)C(=O)O [hGPR8L (1-30)]	promoted GTPγS binding of TGR26 expressing CHO cells depending on the concentration	inhibited intracellular cAMP production of TGR26 expressing CHO cells depending on the concentration
